AlphaSeq binding of Ab-95 light chain variants to a spike HR2 peptide

Target: peptide PDVDLGDISGINAS, taken from heptad repeat 2 (HR2) of SARS-CoV-2 spike.

Ab-95 is the parent antibody, in scFv form: VH, then a 15-residue (Gly4Ser)3 linker, then VL. The heavy chain is unchanged in all variants.
VH: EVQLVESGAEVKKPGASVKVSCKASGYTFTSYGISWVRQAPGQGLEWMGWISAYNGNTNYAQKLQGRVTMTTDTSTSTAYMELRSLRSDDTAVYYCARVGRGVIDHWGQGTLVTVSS
VL: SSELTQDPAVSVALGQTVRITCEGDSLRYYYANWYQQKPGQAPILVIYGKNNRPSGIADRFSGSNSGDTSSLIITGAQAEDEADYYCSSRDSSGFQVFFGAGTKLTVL

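Library AAYL52 holds single substitutions and randomly drawn double and triple substitutions in the CDRs. The assay is AlphaSeq: two haploid yeast populations carry antibody and antigen on their surface. Binding brings cells together so that they mate, and sequencing counts the barcode pairs among the diploids. The ratio of observed to expected reads was calibrated, replicate by replicate, on BCL2-family standards whose Kd was known from biolayer interferometry. Mating was done three times.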

Each variant's VL is given in full.
This list gathers variants with a substitution at Q96 (VL, numbered from residue 1).
Values are apparent Kd, the geometric mean of the replicates that gave a signal; lower means stronger binding.
An entry "nd" has no value in the source: the pair was not observed among the diploids in any replicate. This suggests poor binding but is not conclusive.
In this assay the parent's reference entry averaged 200 nM; its copy inside this library read 180 nM.

The variant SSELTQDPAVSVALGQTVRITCEGDSLRYYYAPWYQQKPGQAPILVIYGKKNRPSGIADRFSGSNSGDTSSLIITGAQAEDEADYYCSSRDSSGFVVFFGAGTKLTVL showed 11 µM (1 of 3 replicates).
The variant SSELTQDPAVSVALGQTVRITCEGDSLRDYYANWYQQKPGQAPILVIYGKNNRPSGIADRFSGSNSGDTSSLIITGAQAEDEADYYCSSRDSSGSNVFFGAGTKLTVL showed 25 nM (3 of 3 replicates).
The variant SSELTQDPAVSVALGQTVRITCEGDSLRYYYANWYQQKPGQAPILVIYGKNNRPSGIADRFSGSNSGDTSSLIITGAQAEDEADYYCSSRDSQGFTVFFGAGTKLTVL showed 58 nM (3 of 3 replicates).
The variant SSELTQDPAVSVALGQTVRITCEGDSLRYYYANWYQQKPGQAPILVIYGKNNRPSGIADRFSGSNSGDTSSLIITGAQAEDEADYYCTSRDSSGFYVFFGAGTKLTVL showed 2.2 µM (2 of 3 replicates).
The variant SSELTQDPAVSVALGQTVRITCEGDSLRYYGANWYQQKPGQAPILVIYGKNNRPSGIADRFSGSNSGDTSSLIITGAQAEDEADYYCSSRDSSGFLDFFGAGTKLTVL showed nd (0 of 3 replicates).
The variant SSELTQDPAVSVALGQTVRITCRGDSLRYYYANWYQQKPGQAPILVIYGKNFRPSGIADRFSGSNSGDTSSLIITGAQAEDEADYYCSSRDSSGFMVFFGAGTKLTVL showed 190 nM (3 of 3 replicates).
The variant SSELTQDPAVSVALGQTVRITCEQDSLRYYYANWYQQKPGQAPILVIYSKNNRPSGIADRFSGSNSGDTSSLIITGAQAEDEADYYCSSRDSSGFSVFFGAGTKLTVL showed 2.0 µM (2 of 3 replicates).
The variant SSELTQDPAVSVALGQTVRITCEGDSLRYYYANWYQQKPGQAPILVIYGKNNRPSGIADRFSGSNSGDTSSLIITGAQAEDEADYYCWSRDSSGFGVDFGAGTKLTVL showed 900 nM (3 of 3 replicates).
The variant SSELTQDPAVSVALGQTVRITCEGDSLRYYYANWYQQKPGQAPILVIYGKNNRPSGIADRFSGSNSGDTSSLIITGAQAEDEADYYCKSRDSSGFDVKFGAGTKLTVL showed 14 µM (3 of 3 replicates).
The variant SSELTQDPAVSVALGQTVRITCKGDSLRYYYANWYQQKPGQAPILVIYGKNNRPSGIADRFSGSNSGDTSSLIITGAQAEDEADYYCSFRDSSGFFVFFGAGTKLTVL showed 290 nM (3 of 3 replicates).
The variant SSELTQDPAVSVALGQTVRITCEGDSLRYHYANWYQQKPGQAPILVIYYKNNRPSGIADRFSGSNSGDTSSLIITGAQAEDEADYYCSSRDSSGFTVFFGAGTKLTVL showed 730 nM (3 of 3 replicates).
The variant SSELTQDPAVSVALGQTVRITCEGDSLRYYYANWYQQKPGQAPILVIYGFNNRPSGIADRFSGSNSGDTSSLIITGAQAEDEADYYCSSTDSSGFMVFFGAGTKLTVL showed 2.4 µM (3 of 3 replicates).
The variant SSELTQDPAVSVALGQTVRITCEGDSLRYYYANWYQQKPGQAPILVIYGKNKKPSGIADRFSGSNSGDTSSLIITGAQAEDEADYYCSSRDSSGFLVFFGAGTKLTVL showed 710 nM (3 of 3 replicates).
The variant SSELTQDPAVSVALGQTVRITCEGDSLRYYYANWYQQKPGQAPILVIYGKRNDPSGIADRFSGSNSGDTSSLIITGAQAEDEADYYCSSRDSSGFAVFFGAGTKLTVL showed 41 µM (2 of 3 replicates).
The variant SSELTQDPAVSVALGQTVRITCEGDSLRYWYANWYQQKPGQAPILVIYGKNNTPSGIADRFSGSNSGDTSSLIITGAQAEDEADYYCSSRDSSGFVVFFGAGTKLTVL showed nd (0 of 3 replicates).
The variant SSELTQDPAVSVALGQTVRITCEGDSSRYYYANWYQQKPGQAPILVIYGKNQRPSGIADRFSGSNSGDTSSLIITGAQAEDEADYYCSSRDSSGFFVFFGAGTKLTVL showed 29 µM (3 of 3 replicates).
The variant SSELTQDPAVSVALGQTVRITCEGDSKRYYYANWYQQKPGQAPILVIYGKNNRPSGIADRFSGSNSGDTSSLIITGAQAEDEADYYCRSRDSSGFAVFFGAGTKLTVL showed nd (0 of 3 replicates).

The last 2 entries again:

For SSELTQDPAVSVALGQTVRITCEGDSSRYYYANWYQQKPGQAPILVIYGKNQRPSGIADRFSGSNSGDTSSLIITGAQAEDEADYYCSSRDSSGFFVFFGAGTKLTVL, the assay gave 29 µM (3 of 3 replicates).
For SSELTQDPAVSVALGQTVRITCEGDSKRYYYANWYQQKPGQAPILVIYGKNNRPSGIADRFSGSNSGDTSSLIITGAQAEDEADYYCRSRDSSGFAVFFGAGTKLTVL, the assay gave nd (0 of 3 replicates).

Three control strains display no target. For library AAYL52, 28% of the pairings with them gave a signal, with a median of 8.2 µM and one signal in twenty below 800 nM, so weak values seen in few replicates may be background.

Data: MIT Lincoln Laboratory AlphaSeq set, Engelhart et al. 2022, doi:10.1038/s41597-022-01779-4, as distributed in FLAb.